According to PubChem BioAssay AID1961 (Sanford-Burnham Center for Chemical Genomics, 2009):
Where “and” joins values, the source holds several entries; their conditions need not be identical. Equal entries are not always repeated. This is a selection; strong and weak results do not stand in their true shares. Calls of active or inactive are those of the source.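 How the source made its calls: active means activation above 40% with more than 50 cells counted in the well; inconclusive means wells holding fewer than 50 cells, flagged as toxic or sparse; inactive means the rest.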

Protein sequences, listed by entry. Tags and fused reporters are not part of them. Lines headed by an entry give the natural chain unless they say otherwise; changes in a name come on top.
UniProt Q9Y2T6: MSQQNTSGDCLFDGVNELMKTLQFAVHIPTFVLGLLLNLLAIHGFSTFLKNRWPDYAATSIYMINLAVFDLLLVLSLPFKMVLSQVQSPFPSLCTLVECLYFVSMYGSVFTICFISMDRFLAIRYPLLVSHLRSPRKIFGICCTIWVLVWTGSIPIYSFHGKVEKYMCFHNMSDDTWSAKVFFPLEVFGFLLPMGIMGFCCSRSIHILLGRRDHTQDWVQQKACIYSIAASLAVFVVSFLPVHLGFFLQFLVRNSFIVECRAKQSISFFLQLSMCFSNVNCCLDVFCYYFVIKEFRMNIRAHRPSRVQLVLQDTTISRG

molecular target: G-protein coupled receptor 55 (Homo sapiens) (UniProt Q9Y2T6); test: GPR55 agonists via beta-arrestin recruitment, primary screen, imaging, U2OS cells, beta-arrestin-GFP redistribution (AID 1961); details: at 10 µM, stronger effect = higher value;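 further: U2OS osteosarcoma cells stably expressing GPR55 and beta-arrestin-GFP; plate controls were DMSO negative control for no effect and LPI positive control for full effect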

Row | SMILES | activation
1 | CCOC(=O)c1ccc(NC(=O)C(C)(CCl)SC)cc1 (stereo not given) | inactive: 0.4%
2 | CCC(C)N(CC(C)C)C(=S)SC(NC(C)=O)C(Cl)(Cl)Cl (stereo not given) | inactive: -0.2%
3 | O=C(COc1ccccc1)OC1CN2CCC1CC2 (stereo not given) | inactive: 0.7%
4 | O=C(Nc1ccncc1[N+](=O)[O-])c1ccc([N+](=O)[O-])cc1[N+](=O)[O-] | inactive: 0.2%
5 | CCOC(=O)Nc1cccc([As](=O)(O)O)c1 | inactive: 0%
6 | Cc1cc(SC(NC=O)C(Cl)(Cl)Cl)ncn1 (stereo not given) | inactive: 0%
7 | ClCCSc1nnc(-c2cccnc2)o1 | inactive: -0.3%
8 | CCN(CC)C(=S)SC(NC=O)C(Cl)(Cl)Cl (stereo not given) | inactive: 0%
9 | CC(C)NC(=O)NP(=O)(Oc1ccccc1)Oc1ccccc1 | inactive: -0.3%
10 | O=[N+]([O-])c1cc([N+](=O)[O-])c(-c2ccn[nH]2)s1 | inactive: -0.5%
11 | Cc1ccc(OP(=O)(Nc2ccc([N+](=O)[O-])cn2)Oc2ccc(C)cc2)cc1 | inactive: 0.2%
12 | Cc1ccc2nc3c(c(C)c2c1)CC(C(Cl)Cl)S3 (stereo not given) | inactive: -0.2%
13 | COc1ccc(N/C(=N/P(=O)(N2CCOCC2)N2CCOCC2)N2CCOCC2)cc1 | inactive: 0.1%
14 | Cc1c2c(nc3ccccc13)SC(C(Cl)Cl)C2 (stereo not given) | inactive: 0%
15 | O=C(OC1CN2CCC1CC2)C12CC3CC(CC(C3)C1)C2 (stereo not given) | inactive: 0.2%
16 | Cc1cc(=O)[nH]c(N[N+](=O)[O-])n1 | inactive: -0.6%
17 | Cc1ccc(NCCc2c([N+](=O)[O-])cc([N+](=O)[O-])cc2[N+](=O)[O-])cc1 | inactive: 0.2%
18 | Nc1cccc2c([As](=O)(O)O)cccc12 | inactive: 1%
19 | CCCOP(=S)(Nc1nc(N)cc(=O)[nH]1)OCCC | inactive: 0.3%
20 | COc1cc(C2NCCC3(OCCO3)C2(C)C)cc(OC)c1OC (stereo not given) | inactive: 0.5%
21 | CCOP(=O)(Nc1cccc2ccccc12)OCC | inactive: 0.4%
22 | Cc1cccc(OCC(=O)OC2CN3CCC2CC3)c1 (stereo not given) | inactive: 0%
23 | CCOP1(=S)c2c(C)nn(CCC#N)c2N=C(c2ccc(F)cc2)N1C (stereo not given) | inactive: -0.2%
24 | CCOP1(=S)c2c(C)nn(CCC#N)c2N=C(c2ccccc2F)N1C (stereo not given) | inactive: 0.5%

Row | SMILES | activation
25 | O=P(Nc1nccs1)(Oc1ccccc1)Oc1ccccc1 | inactive: 0%
26 | CS(=O)(=O)c1cc([N+](=O)[O-])c2no[n+]([O-])c2c1 | inactive: 0.2%
27 | Nc1ccccc1[As](=O)(O)c1ccccc1 | inactive: 0.9%
28 | O=C(O)COc1ccc([As](=O)(O)O)cc1[N+](=O)[O-] | inactive: 0%
29 | O=P1(Nc2ncccn2)COc2ccccc2OC1 | inactive: 0.2%
30 | Cc1ccc(OCC(=O)OC2CN3CCC2CC3)cc1 (stereo not given) | inactive: -0.4%
31 | CC1CCC(C(C)C)C(OP(=O)(Nc2ccccn2)c2ccccc2)C1 (stereo not given) | inactive: 0.7%
32 | Cc1ccc(C(=O)OC2CN3CCC2CC3)cc1 (stereo not given) | inactive: 0.2%
33 | CN(C)C1(CNC(=O)c2ccc(S(C)(=O)=O)cc2)CCCCC1 | inactive: -0.3%
34 | CC(C)/C=N\N=C(\N)N[N+](=O)[O-] | inactive: 0.1%
35 | CN(C(=O)Cc1ccc(Cl)c(Cl)c1)[C@@H]1CCCC[C@H]1N1CCCC1 | inactive: -0.5%
36 | CCC1=CC2Cc3nc4ccc(Cl)cc4c(N)c3C(C1)C2 (stereo not given) | inactive: 0.4%
37 | CCOP(=O)(NC(=NC(C)c1ccccc1)NC(C)c1ccccc1)OCC (stereo not given) | inactive: -0.2%
38 | CCOP(=O)(Nc1ccc(C)cn1)OCC | inactive: 0.4%
39 | Clc1n[nH]nc1-c1nn[nH][15n]1 | inactive: 0%
40 | CC(C)(C)C(=O)NC(Sc1ncccn1)C(Cl)(Cl)Cl (stereo not given) | inactive: 0.1%
41 | CC(C)C(=O)NC(Sc1ccccc1)C(Cl)(Cl)Cl (stereo not given) | inactive: 0.1%
42 | O=P(Nc1nccs1)(c1ccccc1)c1ccccc1 | inactive: 0.2%
43 | c1nnnn1CCn1cnnn1 | inactive: -0.2%
44 | CC(=O)NC(SC(=S)N(C)C)C(Cl)(Cl)Cl (stereo not given) | inactive: 0.1%
45 | Nc1ccc([As](=O)(O)c2ccc([N+](=O)[O-])cc2)cc1 | inactive: -0.3%
46 | C(Cc1nn[nH]n1)Cc1nn[nH]n1 | inactive: 0%
47 | CN(C)C1(CNC(=O)c2ccc(Cl)c(S(N)(=O)=O)c2)CCCCC1 | inactive: 0%
48 | O=P(Nc1nc2ccccc2s1)(c1ccccc1)c1ccccc1 | inactive: -0.2%

Row | SMILES | activation
49 | C[C@H]1OP(=O)(Oc2ccccc2)[C@H](O)[C@H](O)[C@H]1N=[N+]=[N-] (stereo not given in full) | inactive: 0%
50 | CCC(=O)N1C2C3N(C(=O)CC)C1C1N(C(=O)CC)C(C(N1C(=O)CC)N3C(=O)CC)N2C(=O)CC | inactive: 0%
51 | COC(=O)c1cc2c(s1)N=C(c1ccccc1)N(C)P2(=O)N1CCOCC1 (stereo not given) | inactive: 0.3%
52 | CC(=O)NC(SC(=S)N(CC(C)C)CC(C)C)C(Cl)(Cl)Cl (stereo not given) | inactive: -0.2%
53 | Cc1ccc(OP(=O)(Nc2ccccn2)Oc2ccc(C)cc2)cc1 | inactive: 0.8%
54 | Cc1ccccc1OP(=O)(Nc1ccccn1)Oc1ccccc1C | inactive: -0.3%
55 | CN(C)C(=O)Oc1noc2ccccc12 | inactive: 0.6%
56 | O=c1c2cc([N+](=O)[O-])ccc2[nH]c2c([N+](=O)[O-])cc([N+](=O)[O-])cc12 | inactive: -0.2%
57 | c1ccc(-c2nn[nH]n2)c(-c2nn[nH]n2)c1 | inactive: 0.5%
58 | Cc1ccc(NP(=O)(Oc2cccc(C)c2)Oc2cccc(C)c2)nc1 | inactive: -0.3%
59 | O=C(NC1CCS(=O)(=O)C1)NP(=S)(Oc1ccccc1)Oc1ccccc1 (stereo not given) | inactive: -0.3%
60 | C[C@@H]1C=CCP(=O)(Oc2ccccc2)O1 (stereo not given in full) | inactive: 0.3%
61 | C[C@H]1OP(=O)(Oc2ccccc2)C[C@@H]2O[C@@H]21 (stereo not given in full) | inactive: 0%
62 | CC(=O)Nc1ccc([As](=O)(O)O)c(O)c1 | inactive: 0.5%
63 | CC(=O)Nc1ccc(Oc2c([N+](=O)[O-])cc([N+](=O)[O-])cc2[N+](=O)[O-])cc1 | inactive: 0.2%
64 | O=P1(Nc2nc3ccc(Cl)cc3s2)COc2ccccc2O1 (stereo not given) | inactive: -0.2%
65 | CCOc1ccc(C2=NCC(CBr)S2)cc1 (stereo not given) | inactive: 0.6%
66 | CC(C)(C)C(=O)NC(Sc1ccccc1)C(Cl)(Cl)Cl (stereo not given) | inactive: 0.4%
67 | Cc1c2non([O-])c-2c(C)[n+](=O)[n+]1[O-] | inactive: -0.3%
68 | O=C(NC(Sc1ccncn1)C(Cl)(Cl)Cl)c1ccccc1 (stereo not given) | inactive: -0.3%
69 | CC(C)CC(=O)NC(Sc1ccc(Cl)cc1)C(Cl)(Cl)Cl (stereo not given) | inactive: -0.3%
70 | Nc1cc(N)c2nonc2c1[N+](=O)[O-] | inactive: -0.3%
71 | Cc1ccc(N/C(=N/P(=O)(N2CCOCC2)N2CCOCC2)N2CCOCC2)cc1 | inactive: -0.4%
72 | NC(=O)c1cc([N+](=O)[O-])cc([N+](=O)[O-])c1N | inactive: 0%

Row | SMILES | activation
73 | CN1CCCC(OC(=O)C(c2ccccc2)c2ccccc2)C1 (stereo not given) | inactive: 0.4%
74 | COc1ccccc1OP(=O)(Nc1ccc(C)cn1)Oc1ccccc1OC | inactive: 0.3%
75 | Cc1ccc(OP(=O)(Nc2nccs2)Oc2ccc(C)cc2)cc1 | inactive: 0.3%
76 | O=[N+]([O-])c1cc([N+](=O)[O-])c(CCN2CCOCC2)c([N+](=O)[O-])c1 | inactive: 0%
77 | Nc1cccc2ccc([As](=O)(O)O)cc12 | inactive: 0.3%
78 | CCN(N=Nc1nonc1N)c1nonc1N | inactive: 0.1%
79 | O=P(Nc1nc2ccc(Cl)cc2s1)(c1ccccc1)c1ccccc1 | inactive: 0.6%
80 | O=C(O)c1ccccc1[As](=O)(O)O | inactive: 0%
81 | CC(=O)Nc1ccc([As](=O)(O)O)cc1 | inactive: 0.2%
82 | CCOP(=O)(Nc1ccccc1)OCC | inactive: 0.6% and inactive: -0.6%
83 | Cc1cc(SC(NC(=O)c2ccc(F)cc2)C(Cl)(Cl)Cl)ncn1 (stereo not given) | inactive: 0%
84 | Cc1ccc(NP(=O)(Oc2ccccc2F)Oc2ccccc2F)nc1 | inactive: 0.4%
85 | O=[N+]([O-])c1ncn(CCn2ncnc2[N+](=O)[O-])n1 | inactive: 1.1%
86 | CC(C)(C)C(=O)NC(Sc1ccncn1)C(Cl)(Cl)Cl (stereo not given) | inactive: 0%
87 | O=C(O)CNc1ccc([As](=O)(O)O)cc1 | inactive: 0.5%
88 | O=C(Nc1cc([As](=O)(O)O)ccc1O)c1ccccc1 | inactive: 0.3%
89 | CCN(/C(=N/P(=O)(N1CCOCC1)N1CCOCC1)N1CCOCC1)c1ccc(OC)cc1 | inactive: -0.4%
90 | CN(C)C(=O)OCCc1n(C)cc[n+]1C | inactive: 0.3%
91 | COc1ccc(C2=NCC(CBr)S2)cc1 (stereo not given) | inactive: 0.2%
92 | Cc1ccc(NP(=O)(Oc2ccccc2)Oc2ccccc2)nc1 | inactive: -0.2%
93 | CCc1nc2c(n1)c1c(non1O)c1c2no[n+]1[O-] | inactive: 0.2%
94 | O=[N+]([O-])c1cc([N+](=O)[O-])c(CCNc2ccccc2)c([N+](=O)[O-])c1 | inactive: -0.4%
95 | CC(=O)N1C2C3N(C(C)=O)C1C1N(C(C)=O)C(C(N1C(C)=O)N3C(C)=O)N2C(C)=O | inactive: 0%
